{
  "source": "paper PMC11266173",
  "target": "TGEV PLpro (papain-like protease of transmissible gastroenteritis virus strain SC2021) (transmissible gastroenteritis virus (TGEV) strain SC2021)",
  "data": [
    {"substance": "Ubiquitin-AMC (from UniProt P0CG48 1-76)", "values": [
      {"measurement": "Km of cleavage of Ub-AMC by TGEV PLpro (release of AMC, fluorescence Ex/Em 350/440, Michaelis-Menten, double reciprocal plot)", "value": 28.9}
    ]}
  ]
}
